How the values were obtained:
[1] = molecular target: rat dopamine transporter, synaptosomal preparations (Rattus norvegicus, UniProt P23977); details: read-out: Inhibitor Constant (Ki), DA transport; cited from earlier work
[2] = molecular target: rat norepinephrine transport, synaptosomal preparations (Rattus norvegicus, UniProt Q63380); details: read-out: Inhibitor Constant (Ki), NE transport; cited from earlier work
hSERT, hNET, hDAT = assay: Human transporter binding: rank order and range of potency over the three transporters; details: from KD values

By UniProt entry, the sequences of proteins in these tests, tags left out. Residues count along the entry.
UniProt P23977, whole entry: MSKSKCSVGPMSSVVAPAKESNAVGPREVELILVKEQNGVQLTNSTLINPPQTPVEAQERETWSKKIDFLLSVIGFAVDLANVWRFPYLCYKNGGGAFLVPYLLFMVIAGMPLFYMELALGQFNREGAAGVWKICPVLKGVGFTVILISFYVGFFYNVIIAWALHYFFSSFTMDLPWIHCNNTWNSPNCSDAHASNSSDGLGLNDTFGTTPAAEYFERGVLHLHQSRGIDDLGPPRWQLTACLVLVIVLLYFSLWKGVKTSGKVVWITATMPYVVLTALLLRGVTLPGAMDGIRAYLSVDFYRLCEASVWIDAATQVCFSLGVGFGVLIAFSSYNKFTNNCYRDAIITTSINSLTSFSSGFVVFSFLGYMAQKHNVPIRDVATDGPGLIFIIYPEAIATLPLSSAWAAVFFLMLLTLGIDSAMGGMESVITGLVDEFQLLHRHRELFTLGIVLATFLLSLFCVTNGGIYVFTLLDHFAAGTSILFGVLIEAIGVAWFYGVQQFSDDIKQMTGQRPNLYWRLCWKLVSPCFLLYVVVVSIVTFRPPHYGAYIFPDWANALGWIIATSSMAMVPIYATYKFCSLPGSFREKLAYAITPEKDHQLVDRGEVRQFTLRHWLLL
UniProt Q63380, 1-617: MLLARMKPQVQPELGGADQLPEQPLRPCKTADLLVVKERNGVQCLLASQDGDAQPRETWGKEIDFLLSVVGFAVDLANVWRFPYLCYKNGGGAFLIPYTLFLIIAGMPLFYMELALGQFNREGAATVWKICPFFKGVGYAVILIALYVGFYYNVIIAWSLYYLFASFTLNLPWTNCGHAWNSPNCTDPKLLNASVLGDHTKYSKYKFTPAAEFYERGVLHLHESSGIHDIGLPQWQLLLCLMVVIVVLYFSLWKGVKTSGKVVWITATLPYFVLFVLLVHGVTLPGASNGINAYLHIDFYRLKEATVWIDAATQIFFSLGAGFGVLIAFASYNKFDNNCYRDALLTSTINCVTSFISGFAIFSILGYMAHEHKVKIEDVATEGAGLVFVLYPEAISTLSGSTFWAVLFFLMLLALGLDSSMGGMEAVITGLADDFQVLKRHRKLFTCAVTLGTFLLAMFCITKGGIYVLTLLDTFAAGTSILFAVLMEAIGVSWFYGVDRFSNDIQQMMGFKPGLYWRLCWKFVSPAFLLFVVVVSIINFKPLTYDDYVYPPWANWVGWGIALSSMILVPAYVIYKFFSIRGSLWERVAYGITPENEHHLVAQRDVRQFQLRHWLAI

SMILES	Ki [1] [nM]	Ki [2] [nM]	Potency (rank-order of potency of binding; S = hSERT, N = hNET, D = hDAT) (hSERT, hNET, hDAT)
COc1ccc(C(CN(C)C)C2(O)CCCCC2)cc1 (stereo not drawn) [Venlafaxine]	5300 ± 600	210 ± 20	
CN(C)CCCN1c2ccccc2CCc2ccccc21 [Imipramine, reference compound]		14 ± 1	
CN[C@H]1CC[C@@H](c2ccc(Cl)c(Cl)c2)c2ccccc21 [Sertraline, reference compound]			S > D > N
Fc1ccc([C@@H]2CCNC[C@H]2COc2ccc3c(c2)OCO3)cc1 [Paroxetine, reference compound]			S > N > D
CN1Cc2c(N)cccc2C(c2ccccc2)C1 (stereo not drawn) [Nomifensine, reference compound]		5 ± 0.4	
